Test results: ChEMBL document CHEMBL3124870, “Discovery and characterization of potent thiazoles versus methicillin- and vancomycin-resistant Staphylococcus aureus” (J Med Chem, 2014)

Tested on: Caco-2
Experiment: Apparent permeability across basolateral to apical to side in human Caco2 cells at 10 microM for 2 hrs by LC-MS/MS analysis
Type: ADME, cell-based
Conditions: caco-2, 2 h

Papp: 1.2 ucm/s
Structure (SMILES): CNC(=C[N+](=O)[O-])NCCSCc1ccc(CN(C)C)o1 [RANITIDINE]
